Assay [1] deals with T1, Tyrosine-protein phosphatase non-receptor type 22 (Homo sapiens, UniProt Q9Y2R2). It counts as functional.
Assay [2] concerns the target T1, Tyrosine-protein phosphatase non-receptor type 22. In kind it is functional. The source holds these as a separate data set.
The target of another assay is T2, Phospholipase D1 (Homo sapiens, UniProt Q13393).
T2 sequence (Q13393 whole entry): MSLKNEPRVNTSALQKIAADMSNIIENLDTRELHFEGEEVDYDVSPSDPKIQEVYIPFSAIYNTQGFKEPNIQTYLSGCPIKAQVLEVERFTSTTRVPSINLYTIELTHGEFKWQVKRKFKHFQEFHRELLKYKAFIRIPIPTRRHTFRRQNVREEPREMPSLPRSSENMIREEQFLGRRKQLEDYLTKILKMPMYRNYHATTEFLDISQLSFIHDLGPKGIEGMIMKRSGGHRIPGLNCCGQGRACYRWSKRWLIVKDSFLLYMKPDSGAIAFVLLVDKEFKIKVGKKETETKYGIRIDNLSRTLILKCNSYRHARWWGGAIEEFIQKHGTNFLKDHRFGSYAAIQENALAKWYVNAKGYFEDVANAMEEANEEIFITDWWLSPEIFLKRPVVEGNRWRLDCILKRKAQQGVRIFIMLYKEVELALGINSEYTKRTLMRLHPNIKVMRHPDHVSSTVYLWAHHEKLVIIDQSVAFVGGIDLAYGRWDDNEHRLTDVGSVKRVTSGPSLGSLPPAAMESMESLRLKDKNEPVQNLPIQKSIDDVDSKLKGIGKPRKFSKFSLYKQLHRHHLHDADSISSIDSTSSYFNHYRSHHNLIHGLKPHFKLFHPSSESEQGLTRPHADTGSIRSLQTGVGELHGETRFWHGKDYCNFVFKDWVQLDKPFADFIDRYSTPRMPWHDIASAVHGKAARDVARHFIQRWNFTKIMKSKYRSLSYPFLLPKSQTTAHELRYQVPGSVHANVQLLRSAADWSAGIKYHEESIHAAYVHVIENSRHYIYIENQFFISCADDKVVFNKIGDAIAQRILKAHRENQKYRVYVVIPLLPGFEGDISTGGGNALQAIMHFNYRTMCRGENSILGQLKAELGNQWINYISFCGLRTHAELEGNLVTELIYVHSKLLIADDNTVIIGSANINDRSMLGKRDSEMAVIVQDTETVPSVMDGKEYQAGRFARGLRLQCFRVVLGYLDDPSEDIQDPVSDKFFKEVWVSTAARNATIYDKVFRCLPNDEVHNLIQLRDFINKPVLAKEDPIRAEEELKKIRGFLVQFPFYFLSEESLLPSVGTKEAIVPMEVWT
The assay can be described thus: PLD1 purified enzyme concentration response. [Related pubchem assays (depositor defined):AID588854]. It counts as functional.

Protein sequences, listed by entry. Tags and fused reporters are not part of them.
UniProt Q9Y2R2, whole entry: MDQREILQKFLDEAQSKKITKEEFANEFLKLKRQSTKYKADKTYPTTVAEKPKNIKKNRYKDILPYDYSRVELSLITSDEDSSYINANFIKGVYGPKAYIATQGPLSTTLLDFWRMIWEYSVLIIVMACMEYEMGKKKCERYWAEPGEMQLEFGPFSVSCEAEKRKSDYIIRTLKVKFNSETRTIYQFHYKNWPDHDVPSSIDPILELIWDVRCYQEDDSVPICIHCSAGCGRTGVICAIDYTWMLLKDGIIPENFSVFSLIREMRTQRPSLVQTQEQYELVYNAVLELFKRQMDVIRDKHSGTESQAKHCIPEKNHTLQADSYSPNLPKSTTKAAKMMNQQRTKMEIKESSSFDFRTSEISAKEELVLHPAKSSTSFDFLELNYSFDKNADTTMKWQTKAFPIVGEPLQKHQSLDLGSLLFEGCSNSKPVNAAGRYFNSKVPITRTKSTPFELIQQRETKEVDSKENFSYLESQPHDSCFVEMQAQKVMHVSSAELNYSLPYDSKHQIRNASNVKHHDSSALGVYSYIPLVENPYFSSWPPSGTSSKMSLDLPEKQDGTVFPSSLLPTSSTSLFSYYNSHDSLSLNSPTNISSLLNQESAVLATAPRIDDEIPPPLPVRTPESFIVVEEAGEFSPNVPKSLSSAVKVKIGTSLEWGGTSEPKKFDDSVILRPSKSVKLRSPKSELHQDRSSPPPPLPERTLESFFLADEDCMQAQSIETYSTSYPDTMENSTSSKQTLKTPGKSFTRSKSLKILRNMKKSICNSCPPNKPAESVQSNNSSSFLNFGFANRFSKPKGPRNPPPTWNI
UniProt P98170, whole entry: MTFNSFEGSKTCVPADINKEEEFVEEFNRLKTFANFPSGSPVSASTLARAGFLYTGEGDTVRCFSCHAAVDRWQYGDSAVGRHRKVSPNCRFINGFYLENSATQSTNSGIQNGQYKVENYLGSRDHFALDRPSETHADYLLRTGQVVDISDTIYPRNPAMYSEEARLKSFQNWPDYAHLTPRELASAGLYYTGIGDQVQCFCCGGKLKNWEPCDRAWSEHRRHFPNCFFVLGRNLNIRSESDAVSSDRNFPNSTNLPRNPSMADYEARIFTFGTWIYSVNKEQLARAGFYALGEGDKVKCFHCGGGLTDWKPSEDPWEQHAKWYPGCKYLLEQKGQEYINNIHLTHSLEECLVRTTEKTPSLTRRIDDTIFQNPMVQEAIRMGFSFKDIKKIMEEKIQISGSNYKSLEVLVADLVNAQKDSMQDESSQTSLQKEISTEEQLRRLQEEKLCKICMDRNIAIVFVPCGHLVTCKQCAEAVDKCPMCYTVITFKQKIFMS

In assay [3] the target is T3, E3 ubiquitin-protein ligase XIAP (Homo sapiens, UniProt P98170). The assay can be described thus: SAR analysis of Antagonists of XIAP-Bir3 domain of IAP-family anti-apoptotic proteins. [Related pubchem assays (depositor defined):AID1018, AID1449, AID1513, AID1514, AID1638].
For assay [4], the target named is T3, E3 ubiquitin-protein ligase XIAP. Description: SAR analysis of Antagonists of IAP-family anti-apoptotic proteins. [Related pubchem assays (depositor defined):AID1018, AID1449, AID1513, AID1514, AID1638].
Assay [5] can be described thus: blockers of HIV-1 ZM109 envelope-driven cell-cell fusion – HeLa effector, CEM target cells, luciferase, cherry-pick, dose response (AID 652058).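 Note: luciferase signal from HIV-1 Env mediated cell-cell fusion of effector and target cells.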 In kind it is functional, cell-based.
Assay [6] can be described thus: off-target signal loss in HeLa-CEM21 co-culture – HeLa F-luc CTL cells, cherry-picked, counter-screen for HIV-1 Env fusion inhibitor project, dose response (AID 652040).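 Note: potency for signal decrease marking cytotoxic or nonspecific inhibition.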 In kind it is functional, cell-based. On the technique in general: Counterscreens check selectivity or assay interference.
Assay [7] is described as follows: blockers of HIV-1 envelope-mediated cell-cell fusion – cherry-pick, dose response (AID 652057). It counts as functional, cell-based.
Assay [8] can be described thus: HIV-1 AD8 envelope cell-cell fusion blockers – cherry-pick, dose response (AID 652062).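 Note: luciferase signal from cell-cell fusion driven by HIV-1 clade B AD8 Env; potency is for inhibitors of fusion seen as a drop in luminescence.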 In kind it is functional, cell-based.

Active and inactive are the calls of the source. Unless noted, no cut-off for these calls is given here.

The term IC50 denotes the concentration that gives 50% inhibition. Take `Cn1ncnc2c(=O)n(C)c(=O)nc1-2`: the figures for the IC50 in [1] and in assay [2] were active: < 1.24 µM and active: 1.35 µM, respectively.
As for `C[C@@H](CN1CCC(n2c(=O)[nH]c3ccc(F)cc32)CC1)NC(=O)[C@@H]1C[C@H]1c1ccccc1`, the IC50 on Phospholipase D1 is active: 0.16 µM.
Turning to `CN[C@@H](C)C(=O)N[C@H](C(=O)N1CCC[C@H]1C(=O)N[C@@H]1CCCc2ccccc21)C(C)C`, the half-inhibitory concentration (IC50) was active: 0.28 µM in [3] and active: 3.1 µM in assay [4].
What is called AC50 is the concentration at which the activity in the assay is half-maximal. For `CC(Cc1ccc(O)cc1)NCC(O)c1cc(O)cc(O)c1` (centres undefined) [FENOTEROL HBR], the AC50 in [5] was active: 7.68 µM; in assay [6] it was active: 3.81 µM; in assay [7], active: 6.9 µM; in assay [8], active: 4.14 µM.

The record behind these values is ChEMBL document CHEMBL1201862, “PubChem BioAssay data set” (2004).
